The target in the assay is Alpha-2B adrenergic receptor (Homo sapiens, UniProt P18089).

Protein sequences, listed by entry. Tags and fused reporters are not part of them.
UniProt P18089, whole entry: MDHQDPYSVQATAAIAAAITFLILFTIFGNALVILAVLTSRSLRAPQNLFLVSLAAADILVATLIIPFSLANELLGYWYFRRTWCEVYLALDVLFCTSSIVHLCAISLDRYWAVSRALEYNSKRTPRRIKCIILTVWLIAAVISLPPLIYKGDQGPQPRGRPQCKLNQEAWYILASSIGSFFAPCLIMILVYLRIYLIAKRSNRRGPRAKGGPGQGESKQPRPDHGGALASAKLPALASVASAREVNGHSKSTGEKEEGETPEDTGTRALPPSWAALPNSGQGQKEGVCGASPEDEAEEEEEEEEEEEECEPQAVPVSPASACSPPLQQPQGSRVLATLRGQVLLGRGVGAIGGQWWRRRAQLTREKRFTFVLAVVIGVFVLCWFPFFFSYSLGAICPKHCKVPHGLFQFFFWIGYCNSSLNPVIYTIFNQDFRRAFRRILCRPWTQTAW

Experimental findings from BindingDB's records for PubMed 7996470 (University of Michigan, 1994) are described below.

A word on the Ki: it is the equilibrium dissociation constant of an inhibitor or competing ligand from its target. Read a high Ki as weaker binding.

With `O=C1NCN(c2ccccc2)C12CCN(CC1COc3ccccc3O1)CC2` (stereo unspecified) [8-(2,3-Dihydro-benzo[1,4]dioxin-2-ylmethyl)-1-phenyl-1,3,8-triaza-spiro[4.5]decan-4-one], the Ki is 1.57 nM.
